Earlier results, collected in patent US5332726A, “Antithrombotic peptides and pseudopeptides” (Rhone-Poulenc Rorer Pharmaceuticals Inc., priority 1992, dated 1994).

Test system: human platelets
Settings: cited from earlier work

Structure (SMILES): N=C(N)NCCC[C@H](NC(=O)[C@@H]1CCCN1C(=O)CN)C(=O)N1CCC[C@H]1C(=O)O [glycyl-L-prolyl-L-arginyl-L-proline]
- inhibits fibrinogen binding to human platelets: inhibits fibrinogen binding to human platelets
